Experimental data reported in published antibiotic growth screens (doi:10.1038/s41589-023-01349-8).
Some of the results follow.

System: A. baumannii ATCC 17978
Test: relative growth (fraction of control); higher = less inhibition
Conditions: 50 µM

Compound	relative growth
COCC(=O)N(C)C[C@@H]1Oc2cc(C#CC(C)(C)O)ccc2S(=O)(=O)N([C@@H](C)CO)C[C@@H]1C	1.08
C=CC(C1=CC(=O)C=CC1=O)c1ccccc1 (configuration not stated)	0.981
O=C[C@H](O)[C@@H](O)[C@H](O)CO	1.21
CCNc1nc(NCC)nc(C(=O)OCCO)n1	0.877
O=C(C[C@H]1C[C@@H]2c3cc(NC(=O)C4CCOCC4)ccc3O[C@@H]2[C@@H](CO)O1)NCCN1CCCCC1	1.1
CC(C)C[C@@](O)(CC(=O)O)C(=O)O	1.02
Cc1cccc(N[C@H]2CS(=O)(=O)C[C@@H]2O)c1	1.1
O=C(C[C@H]1CC[C@@H]2[C@H](COC[C@H](O)CN2S(=O)(=O)c2ccc(Cl)cc2)O1)N[C@H]1CCN(Cc2ccccc2)C1	0.896
C=CCOC(=O)[C@@H]1[C@H]2C(=O)O[C@H](c3ccccc3)[C@H](c3ccccc3)N2[C@H](c2ccc(OCCOC(=O)[C@@H]3C[C@@H]4C(=O)NCC(=O)N4[C@@H]3c3ccc(O)cc3)cc2)[C@@]12C(=O)Nc1ccc(I)cc12	1.24
COc1c2ccoc2c(OC)c2oc(=O)ccc12	1.01
C[C@H](N)C(=O)N1CCc2ccccc2C1	1.06
C[C@H](CO)N1C[C@H](C)[C@@H](CN(C)C(=O)Nc2ccc(C(F)(F)F)cc2)Oc2ncc(C3=CCCC3)cc2C1=O	0.968
C[C@H](CO)N1C[C@H](C)[C@H](CN(C)C)Oc2cc(C#C[C@@H](C)O)ccc2S1(=O)=O	0.853
CN(C)CC(=O)N[C@@H]1C=C[C@@H](CC(=O)NCCN2CCCCC2)O[C@H]1CO	0.933
O=C1O[C@@H](c2ccccc2)[C@@H](c2ccccc2)N2[C@@H](c3ccc(OCCO)cc3)[C@]3(C(=O)Nc4ccc(C#CC5=CCCCC5)cc43)[C@@H](C(=O)NC[C@H](O)c3ccccc3)[C@H]12	1.2
CN(C)c1ccc(NC(=O)CN)cc1	1.06
C[C@@H]1C[C@H](C)CN(S(=O)(=O)N2CCC[C@H](C(=O)NCCN3CCOCC3)C2)C1	1.12
c1ccc2c(CSc3nc4ccccc4s3)cccc2c1	1.14
COC[C@@H](O)CSc1[nH]c(C)nc1[N+](=O)[O-]	1.01
COc1ccc2c(c1)OC/C(=C\c1ccc(OC)c(O)c1)C2=O	0.957
COc1ccc(-c2cc(=O)c3c(O)cc(O)c(-c4cc(-c5cc(=O)c6c(O)cc(O)cc6o5)ccc4OC)c3o2)cc1	1.01
COCCCNC(=O)C[C@H]1SC(=N)NC1=O	1.03

Compound	relative growth
COC(=O)C1=C(C)NC(C)=C(C(=O)OCCN2CCN(C(c3ccccc3)c3ccccc3)CC2)C1c1cccc([N+](=O)[O-])c1 (configuration not stated)	1.32
CCOc1nc2cccc(C(=O)OC(C)OC(=O)OC3CCCCC3)c2n1Cc1ccc(-c2ccccc2-c2nnn[nH]2)cc1 (configuration not stated)	0.95
CC[C@@H](C)C(=O)O[C@H]1[C@@H]2CC3=C4CC(=O)O[C@@H](c5ccoc5)[C@]4(C)CC[C@@H]3[C@@](C)(C2=O)[C@@H](CC(=O)OC)C1(C)C	1.08
CCS(=O)(=O)NCC[C@@H]1CC[C@H](NC(=O)Cc2ccccn2)[C@@H](CO)O1	0.828
CC(=O)Nc1ccccc1	0.935
COc1ccc(C(=O)Nc2cccc(CN3C(=O)[C@@]4(O[C@@H](CC(=O)N5CCC[C@H]5CO)[C@H]([Si](C)(C)c5ccc(OC)cc5)[C@H]4C)c4ccccc43)c2)cc1	1.03
C[C@H](CO)N1C[C@H](C)[C@H](CN(C)S(C)(=O)=O)Oc2cc(-c3cccc(F)c3)ccc2S1(=O)=O	0.949
NC(=S)N[C@H]1C[C@@H]2C=C[C@H]1C2	1.09
CC(=O)Oc1ccc(-c2cc(=O)c3c(OC(C)=O)cc(OC(C)=O)cc3o2)cc1	0.907
COc1ccccc1CN1C(=O)c2ccccc2[C@](Cc2ccccc2I)(C(=O)NCC(C)C)[C@@H]1c1ccc(CO)cc1	1.03
O=C1O[C@@H](c2ccccc2)[C@@H](c2ccccc2)N2[C@@H](c3ccc(O)cc3)[C@]3(C(=O)Nc4ccc(C#CCCO)cc43)[C@@H](C(=O)N3CCCCCCC3)[C@H]12	0.928
CC(C(=O)O)c1ccc2c(c1)Cc1cccnc1O2 (configuration not stated)	1
O=C(C[C@@H]1CC[C@H](NC(=O)C2CC2)[C@@H](CO)O1)NCCCN1CCOCC1	0.979
C[C@H](CCC(=O)O)[C@H]1CC[C@H]2[C@@H]3CC=C4C[C@@H](O)CC[C@]4(C)[C@H]3CC[C@]12C [3beta-HYDROXYCHOL-5-ENIC ACID]	0.879
CC(C)(O)c1ccccc1CC[C@@H](SCC1(CC(=O)[O-])CC1)c1cccc(/C=C/c2ccc3ccc(Cl)cc3n2)c1.[Na+]	1.34
O=C(CCCCCCC(=O)Nc1ccc(C(=O)NCCOCCOCCNC(=O)c2ccc(NC(=O)CCCCCCC(=O)NO)cc2)cc1)NO	0.841
COCC(=O)N(C)C[C@H]1Oc2cc(C#Cc3ccccc3)ccc2S(=O)(=O)N([C@@H](C)CO)C[C@H]1C	0.954
Cn1cccc1[C@@H](CN)N1CCc2ccccc2C1	0.926
COC[C@@H]1CN(C)N=C(C2CC2)O1	1.19
COc1cccc(S(=O)(=O)N[C@@H]2C=C[C@H](CC(=O)NC3CCC3)O[C@@H]2CO)c1	1.1
N[C@@H](Cc1ccc2nonc2c1)C(=O)O	1.07
O=C(NCCN1CCOCC1)C(=O)NC[C@H]1COc2ccccc2O1	1.07

Compound	relative growth
Cc1cc(-c2ccccc2)oc2cc3ccccc3c1-2	0.974
N#CC1(N[C@@H](Cc2ccccc2)c2ccccc2)CCCCCC1	0.849
C=C(C)[C@@H]1CC[C@]2(C)CC[C@]3(C)[C@@H](CCC4[C@@]5(C)CC[C@H](O)C(C)(C)C5CC[C@]43C)C12 (some centres not stated)	0.961
CC(=O)Oc1ccccc1C(=O)O	1.01
Cc1cccc(S(=O)(=O)N2C[C@H](O)COC[C@@H]3O[C@@H](CC(=O)NCCCN4CCOCC4)CC[C@H]32)c1	0.974
C[C@@H]1CN([C@H](C)CO)S(=O)(=O)c2ccc(-c3cccc(F)c3)cc2O[C@H]1CN(C)S(C)(=O)=O	1.04
O=c1cc(-c2ccccc2)oc2cc(O)ccc12	1.06
C/C=C1\[C@H](O[C@@H]2O[C@H](CO)[C@@H](O)[C@H](O)[C@H]2O)OC=C(C(=O)OC)[C@H]1CC(=O)OC	1.06
N=C(N)NS(=O)(=O)c1ccc(N)cc1	0.891
CCCC#Cc1ccc2c(c1)O[C@@H](CN(C)C(=O)c1cnccn1)[C@@H](C)CN([C@@H](C)CO)S2(=O)=O	0.963
O=c1[nH]c(=O)n([C@@H]2O[C@H](CO)[C@@H](O)[C@H]2O)cc1Br	1.13
Cc1nc2[nH]c(C)c(CCC(=O)O)c(=O)n2n1	1.04
CC1=C(/C=C/C(C)=C/C=C/C(C)=C/C(=O)O)C(C)(C)CCC1	1.04
CC(N)(Cc1ccc2c(c1)OCO2)C(=O)O (configuration not stated)	1.02
COCCNC(=O)C[C@H]1C[C@H]2c3cc(NS(C)(=O)=O)ccc3O[C@H]2[C@@H](CO)O1	1.12
Cc1ccc(S(=O)(=O)NCCC(=O)N2CCOCCOCCOCC2)cc1	0.913
CCCNC(=O)[C@@]1(Sc2ccc(C)cc2)CC(=O)N(Cc2cc(C(F)(F)F)cc(C(F)(F)F)c2)[C@@H]1c1ccc(CO)cc1I	1.1
CN1CCN(C(=O)C[C@@H]2CC[C@H]3[C@@H](COC[C@H](O)CN3C(=O)C3CCCC3)O2)CC1	0.905
c1ccc2c(-c3cn[nH]c3)ccnc2c1	0.822
CCN(CC)c1nc(C#N)nc(OC)n1	1.05
O=C(C[C@H]1C=C[C@@H](NC(=O)c2cccnc2)[C@H](CO)O1)NCCN1CCCCC1	1.01
[O-][NH2+][O-]	0.873

Compound	relative growth
C[C@@H]1[C@@H]([Si](C)(C)F)[C@H](CC(=O)N(CCO)Cc2ccccc2)O[C@@]12C(=O)N(c1ccccc1)c1ccccc12	0.949
CO[C@@H](CN(C)S(=O)(=O)c1ccc(F)cc1)[C@@H](C)CN([C@@H](C)CO)S(=O)(=O)c1cccc(Cl)c1	0.742
CO[C@H]1CN(C)C(=O)c2cc(NC(=O)C3CCOCC3)ccc2OC[C@@H](C)N(Cc2cccnc2)C[C@@H]1C	1.01
CN1CCN(C(=O)C[C@H]2CC[C@H](NC(=O)Cc3ccccn3)[C@@H](CO)O2)CC1	0.951
CC1OC1P(=O)([O-])[O-].[Ca+2] (configuration not stated)	1.08
Nc1nnc(SCC(=O)N2CCOCC2)[nH]1	1.12
Cc1ccc(Nc2nc(-c3ccc(C)cc3)c(C)s2)cc1	0.999
C[C@@H](NC(=O)C[C@@H]1CC[C@@H](NC(=O)CN2CCOCC2)[C@@H](CO)O1)c1ccccc1	1.12
C[C@H](CO)N1C[C@H](C)[C@@H](CN(C)Cc2ccc3c(c2)OCO3)Oc2ncc(C#CCN(C)C)cc2C1=O	0.963
CN1CCN(C(=O)C[C@H]2C=C[C@@H](NC(=O)Cc3ccccn3)[C@H](CO)O2)CC1	1.05
COc1ccc(N2CCCS2(=O)=O)cc1N	1.07
CCn1c(=O)cc(N2CCC(C)CC2)[nH]c1=O	1.04
O=C(COc1ccccc1)Nc1nnc[nH]1	0.943
CCC1(c2ccccc2)NC(=O)N(C)C1=O (configuration not stated)	1.25
ON/C=N\c1nonc1-c1cccnc1	1.17
C[C@@H]1CN([C@@H](C)CO)S(=O)(=O)c2ccc(C#CCN(C)C)cc2O[C@@H]1CN(C)C(=O)CN(C)C	0.835
OC[C@]1(O)OC[C@@H](O)[C@H](O)[C@@H]1O	0.911
CC(NCCc1ccc(O)cc1)C(O)c1ccc(O)cc1.Cl (configuration not stated)	1.02
CN1CCN(C2=Nc3ccccc3Oc3ccc(Cl)cc32)CC1.O=C(O)CCC(=O)O	1.15
CCN(CC)CCc1nc(-c2ccccc2)no1.O=C(O)CC(O)(CC(=O)O)C(=O)O	1.15
N[C@@H](CCC(=O)N[C@@H](CS)C(=O)NCC(=O)O)C(=O)O	1.16
